## Membrane permeability of cyclic peptides

Collected by the curators of CycPeptMPDB (Li et al. 2023) from Townsend et al. 2020, doi:10.26434/chemrxiv.13335941.v1.

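Lipid, pH, incubation time, direction and concentration are not recorded in the data file. Other peptides of the study may be missing here. Entries at the database's floor value (log10 P of -10) are not listed.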

PAMPA measures passive passage through an artificial lipid membrane.
P is given in units of 10^-6 cm/s (from log10 values with two decimals); larger means faster passage.

compound	PAMPA (10^-6 cm/s)
CCCN1CC(=O)N(C)[C@H](CC(C)C)C(=O)N[C@@H](CC(C)C)C(=O)N2CCC[C@@H]2C(=O)N(Cc2ccccc2)CC(=O)N[C@@H](Cc2ccccc2)C(=O)N2CCC[C@H]2C1=O	5.1
CC(C)C[C@@H]1NC(=O)[C@H]2CCCN2C(=O)[C@H](CC(C)C)NC(=O)CN(Cc2ccccc2)C(=O)[C@H](C)NC(=O)[C@H](Cc2ccccc2)NC1=O	0.91
CC(C)C[C@H]1C(=O)N(C)[C@@H](CC(C)C)C(=O)N2CCC[C@H]2C(=O)N(C)[C@@H](CC(C)C)C(=O)N[C@@H](Cc2ccccc2)C(=O)N[C@@H](Cc2ccccc2)CC(=O)N1C	5.1
CC(C)C[C@@H]1C(=O)N(Cc2ccccc2)CC(=O)N2CCC[C@@H]2C(=O)N[C@H](CC(C)C)C(=O)N[C@@H](Cc2ccccc2)C(=O)N2CCC[C@@H]2C(=O)N(C)[C@@H](C)C(=O)N1C	2
CCCN1CC(=O)N[C@@H](CC(C)C)C(=O)N[C@H](CC(C)C)C(=O)N2CCC[C@@H]2C(=O)N[C@H](CC(C)C)C(=O)N[C@@H](Cc2ccccc2)C1=O	0.91
CC(C)C[C@@H]1NC(=O)[C@@H](CC(C)C)N(C)C(=O)[C@H](C)NC(=O)[C@@H]2CCCN2C(=O)[C@H](Cc2ccccc2)NC(=O)[C@@H](CC(C)C)N(C)C(=O)[C@H]2CCCN2C1=O	1.3
CC(C)C[C@@H]1NC(=O)[C@@H](CC(C)C)NC(=O)[C@@H](C)N(C)C(=O)[C@@H]2CCCN2C(=O)[C@H](Cc2ccccc2)NC(=O)[C@@H](CC(C)C)N(C)C(=O)[C@@H]2CCCN2C1=O	1.6
CC(C)C[C@@H]1NC(=O)[C@@H]2CCCN2C(=O)[C@H](CC(C)C)N(C)C(=O)[C@H](CC(C)C)NC(=O)[C@@H](C)N(C)C(=O)[C@H]2CCCN2C(=O)[C@H](Cc2ccccc2)NC1=O	4.2
CCCN1CC(=O)N[C@@H](CC(C)C)C(=O)N[C@@H](Cc2ccccc2)CC(=O)N2CCC[C@@H]2C(=O)N[C@@H](CC(C)C)C(=O)N[C@@H](Cc2ccccc2)C(=O)N2CCC[C@H]2C1=O	0.15
CC(C)C[C@@H]1NC(=O)C[C@H](Cc2ccccc2)NC(=O)[C@@H]2CCCN2C(=O)[C@H](Cc2ccccc2)NC(=O)[C@@H](CC(C)C)N(C)C(=O)[C@@H]2CCCN2C(=O)[C@H](CC(C)C)N(C)C1=O	4.3
CCCN1CC(=O)N[C@H](CC(C)C)C(=O)N[C@@H](CC(C)C)C(=O)N2CCC[C@@H]2C(=O)N(Cc2ccccc2)CC(=O)N[C@@H](Cc2ccccc2)C(=O)N2CCC[C@@H]2C1=O	1.8
CC(C)C[C@@H]1C(=O)N(C)[C@@H](CC(C)C)C(=O)N2CCC[C@H]2C(=O)N[C@H](CC(C)C)C(=O)N[C@@H](Cc2ccccc2)C(=O)N2CCC[C@H]2C(=O)N[C@@H](C)C(=O)N1C	1.7
CC(C)C[C@@H]1NC(=O)[C@@H](CC(C)C)NC(=O)C[C@H](Cc2ccccc2)NC(=O)[C@H]2CCCN2C(=O)[C@H](Cc2ccccc2)NC(=O)[C@@H](CC(C)C)NC(=O)[C@@H]2CCCN2C1=O	0.93
CCCN1CC(=O)N(C)[C@@H](CC(C)C)C(=O)N(Cc2ccccc2)CC(=O)N2CCC[C@@H]2C(=O)N[C@H](CC(C)C)C(=O)N[C@@H](Cc2ccccc2)C(=O)N2CCC[C@@H]2C1=O	3.6
CC(C)C[C@@H]1NC(=O)[C@@H]2CCCN2C(=O)[C@@H](CC(C)C)NC(=O)[C@@H](CC(C)C)N(C)C(=O)[C@@H](C)N(C)C(=O)[C@@H]2CCCN2C(=O)[C@H](Cc2ccccc2)NC1=O	1.4
CC(C)C[C@@H]1C(=O)N[C@H](CC(C)C)C(=O)N2CCC[C@@H]2C(=O)N[C@H](CC(C)C)C(=O)N[C@@H](Cc2ccccc2)C(=O)N2CCC[C@@H]2C(=O)N(C)[C@H](C)C(=O)N1C	0.6
CC(C)C[C@@H]1NC(=O)[C@@H]2CCCN2C(=O)[C@H](CC(C)C)NC(=O)[C@@H](CC(C)C)NC(=O)C[C@H](Cc2ccccc2)NC(=O)[C@H]2CCCN2C(=O)[C@H](Cc2ccccc2)NC1=O	0.59
CC(C)C[C@@H]1NC(=O)[C@@H](C)NC(=O)[C@H]2CCCN2C(=O)[C@H](Cc2ccccc2)NC(=O)[C@H](CC(C)C)N(C)C(=O)[C@@H]2CCCN2C(=O)[C@H](CC(C)C)N(C)C1=O	2.6
CC(C)C[C@@H]1NC(=O)[C@@H](C)NC(=O)[C@@H]2CCCN2C(=O)[C@H](Cc2ccccc2)NC(=O)[C@H](CC(C)C)N(C)C(=O)[C@@H]2CCCN2C(=O)CN(Cc2ccccc2)C1=O	1.8